Source: patent US12214014B2, “Methods for scar reduction by converting scar fibroblasts into adipocytes with hair follicle-derived signals” (The Trustees of the University of Pennsylvania, priority 2017, dated 2025)

Test system: mouse dermal cells isolated from day 15 wounds
Experiment: Primary mouse adipogenic cell culture
Type: cell-based
Conditions: 6 ng/ml hBMP4 or 25 ng/ml hBMP2 with differentiation media
Protocol: Primary scar cells were isolated from day 15 wounds as described in D. Gay et al., Nature medicine 19:916 (2013) with minor modifications. Single cell fractions were created and cultured to confluence in high-glucose to DMEM (Gibco) supplemented with 10% FBS (Atlanta Biologicals) and […] Pen/Strep cocktail (Gibco). Upon confluency, cells were cultured in adipocyte differentiation media alone (Cell Solutions) or DMEM supplemented with 5 μg/ml insulin (Sigma), and 1 μM rosiglitazone (Sigma) with either 6 ng/ml of recombinant hBMP4 (R&D Systems), or 25 ng/ml of recombinant hBMP2 (R&D Systems), or differentiation media alone (Cell Solutions). After three days, cells differentiation media was switched to adipocyte maintenance media (Cell Solutions). Cells were cultured in a water-jacketed incubator at 37° C. with 5% CO2 output
Total RNA was isolated using Trizol reagent (Thermo) or RNEasy Micro-Kit (Qiagen) as per manufacturer's protocol with minor modifications. Total RNA was reverse-transcribed and cDNA was amplified using PCR primers described in J. Ishibashi et al., Mol Cell Biol 32:2289 (2012). See Tables 3 and 4 for the sequences of primers used.

B1: BMP2: human recombinant bone morphogenetic protein 2 (R&D Systems) (protein, UniProt P12643 283-396, looked up)
Bone morphogenetic protein 2: QAKHKQRKRLKSSCKRHPLYVDFSDVGWNDWIVAPPGYHAFYCHGECPFPLADHLNSTNHAIVQTLVNSVNSKIPKACCVPTELSAISMLYLDENEKVVLKNYQDMVVEGCGCR
activation of adipocyte-specific genes (qRT-PCR): activation of adipocyte-specific genes
reprogramming of cultured mouse dermal cells into adipocytes (without BMP non-adipogenic): induced their reprogramming into adipocytes
